Results published in ChEMBL document CHEMBL3885861, “Open TG-GATES”.

Experiments:
Rattus norvegicus [1] = species on record: Rattus norvegicus; test: Open TG-GATES - Regimen: Daily Repeat; format: toxicity, organism-based, Sprague-Dawley; design: regimen Daily Repeat, gender Male, age 6 weeks; details: in vivo, po, tissue Liver, route gavage
Rattus norvegicus [2] = species on record: Rattus norvegicus; test: Open TG-GATES - Regimen: Single; format: toxicity, organism-based, Sprague-Dawley; design: regimen Single, gender Male, age 6 weeks; details: in vivo, po, route gavage
[3] = 0 mg/kg, 3 h, tissue Blood, dose level Control
[4] = 0 mg/kg, 6 h, tissue Blood, dose level Control
[5] = 0 mg/kg, 6 h, tissue Plasma, dose level Control
[6] = 0 mg/kg, 9 h, tissue Blood, dose level Control
[7] = 0 mg/kg, 24 h, tissue Blood, dose level Control
[8] = 0 mg/kg, 24 h, tissue Plasma, dose level Control
[9] = 200 mg/kg, 3 h, tissue Blood, dose level Low
[10] = 200 mg/kg, 3 h, tissue Plasma, dose level Low
[11] = 200 mg/kg, 6 h, tissue Blood, dose level Low
[12] = 200 mg/kg, 6 h, tissue Plasma, dose level Low
[13] = 200 mg/kg, 9 h, tissue Blood, dose level Low
[14] = 200 mg/kg, 9 h, tissue Plasma, dose level Low
[15] = 200 mg/kg, 24 h, tissue Blood, dose level Low
[16] = 200 mg/kg, 24 h, tissue Plasma, dose level Low
[17] = 600 mg/kg, 3 h, tissue Blood, dose level Middle
[18] = 600 mg/kg, 3 h, tissue Plasma, dose level Middle
[19] = 600 mg/kg, 6 h, tissue Blood, dose level Middle
[20] = 600 mg/kg, 6 h, tissue Plasma, dose level Middle
[21] = 600 mg/kg, 9 h, tissue Blood, dose level Middle
[22] = 600 mg/kg, 9 h, tissue Plasma, dose level Middle
[23] = 600 mg/kg, 24 h, tissue Blood, dose level Middle
[24] = 600 mg/kg, 24 h, tissue Plasma, dose level Middle
[25] = 2000 mg/kg, 3 h, tissue Blood, dose level High
[26] = 2000 mg/kg, 3 h, tissue Plasma, dose level High
[27] = 2000 mg/kg, 6 h, tissue Blood, dose level High
[28] = 2000 mg/kg, 6 h, tissue Plasma, dose level High
[29] = 2000 mg/kg, 9 h, tissue Blood, dose level High
[30] = 2000 mg/kg, 9 h, tissue Plasma, dose level High
[31] = 2000 mg/kg, 24 h, tissue Blood, dose level High

CCCCC1C(=O)N(c2ccccc2)N(c2ccccc2)C1=O [PHENYLBUTAZONE]
LIVER (Rattus norvegicus [1]; 0 mg/kg, 72 h, dose level Control, time 3 day): 12.5 g
LIVER (Rattus norvegicus [1]; 0 mg/kg, […], dose level Control, time 14 day): 14.5 g
LIVER (Rattus norvegicus [1]; 0 mg/kg, […], dose level Control, time 28 day): 15.3 g
LIVER (Rattus norvegicus [1]; 20 mg/kg, 72 h, dose level Low, time 3 day): 11.6 g
LIVER (Rattus norvegicus [1]; 20 mg/kg, […], dose level Low, time 7 day): 13.1 g
LIVER (Rattus norvegicus [1]; 20 mg/kg, […], dose level Low, time 14 day): 15.3 g
LIVER (Rattus norvegicus [1]; 20 mg/kg, […], dose level Low, time 28 day): 16.4 g
LIVER (Rattus norvegicus [1]; 60 mg/kg, 72 h, dose level Middle, time 3 day): 12.3 g
LIVER (Rattus norvegicus [1]; 60 mg/kg, […], dose level Middle, time 7 day): 13.6 g
LIVER (Rattus norvegicus [1]; 60 mg/kg, […], dose level Middle, time 14 day): 14.4 g
LIVER (Rattus norvegicus [1]; 60 mg/kg, […], dose level Middle, time 28 day): 19.3 g
LIVER (Rattus norvegicus [1]; 200 mg/kg, 72 h, dose level High, time 3 day): 12.9 g
LIVER (Rattus norvegicus [1]; 200 mg/kg, […], dose level High, time 7 day): 13.9 g
LIVER (Rattus norvegicus [1]; 200 mg/kg, […], dose level High, time 14 day): 15.5 g
LIVER (Rattus norvegicus [1]; 200 mg/kg, […], dose level High, time 28 day): 16.2 g

COc1cc2ncnc(Nc3ccc(F)c(Cl)c3)c2cc1OCCCN1CCOCC1 [GEFITINIB]
Hb (Rattus norvegicus [2]; [3]): 13.1 g/dL
MCHC (Rattus norvegicus [2]; [3]): 33.1%
Plat (Rattus norvegicus [2]; [3]): 107.4 x10_4/uL
WBC (Rattus norvegicus [2]; [3]): 95.3 x10_2/uL
BUN (Rattus norvegicus [2]; 0 mg/kg, 3 h, tissue Plasma, dose level Control): 13 mg/dL
Hb (Rattus norvegicus [2]; [4]): 13.4 g/dL
MCHC (Rattus norvegicus [2]; [4]): 33.2%
MCV (Rattus norvegicus [2]; [4]): 64.5 fL
Plat (Rattus norvegicus [2]; [4]): 111.8 x10_4/uL
BUN (Rattus norvegicus [2]; [5]): 11.3 mg/dL
GLC (Rattus norvegicus [2]; [5]): 188.4 mg/dL
Hb (Rattus norvegicus [2]; [6]): 12.8 g/dL
MCHC (Rattus norvegicus [2]; [6]): 33.2%
MCV (Rattus norvegicus [2]; [6]): 64.1 fL
Plat (Rattus norvegicus [2]; [6]): 116.7 x10_4/uL
BUN (Rattus norvegicus [2]; 0 mg/kg, 9 h, tissue Plasma, dose level Control): 12.3 mg/dL
Hb (Rattus norvegicus [2]; [7]): 12.9 g/dL
MCV (Rattus norvegicus [2]; [7]): 64.4 fL
Plat (Rattus norvegicus [2]; [7]): 129 x10_4/uL
WBC (Rattus norvegicus [2]; [7]): 91.8 x10_2/uL
ALP (Rattus norvegicus [2]; [8]): 1878 IU/L
BUN (Rattus norvegicus [2]; [8]): 16 mg/dL
GLC (Rattus norvegicus [2]; [8]): 184 mg/dL
Hb (Rattus norvegicus [2]; [9]): 12.1 g/dL
MCHC (Rattus norvegicus [2]; [9]): 33.5%
MCV (Rattus norvegicus [2]; [9]): 62.6 fL
Plat (Rattus norvegicus [2]; [9]): 124.9 x10_4/uL
WBC (Rattus norvegicus [2]; [9]): 97.4 x10_2/uL
BUN (Rattus norvegicus [2]; [10]): 13.5 mg/dL
GLC (Rattus norvegicus [2]; [10]): 199.4 mg/dL
MCHC (Rattus norvegicus [2]; [11]): 33.4%
MCV (Rattus norvegicus [2]; [11]): 64.6 fL
Plat (Rattus norvegicus [2]; [11]): 110.8 x10_4/uL
WBC (Rattus norvegicus [2]; [11]): 84.7 x10_2/uL
BUN (Rattus norvegicus [2]; [12]): 11.2 mg/dL
GLC (Rattus norvegicus [2]; [12]): 194.6 mg/dL
Hb (Rattus norvegicus [2]; [13]): 12.8 g/dL
MCHC (Rattus norvegicus [2]; [13]): 33.1%
Plat (Rattus norvegicus [2]; [13]): 132.5 x10_4/uL
WBC (Rattus norvegicus [2]; [13]): 78.8 x10_2/uL
GLC (Rattus norvegicus [2]; [14]): 178.2 mg/dL
LDH (Rattus norvegicus [2]; [14]): 188.4 IU/L
Hb (Rattus norvegicus [2]; [15]): 13.1 g/dL
MCHC (Rattus norvegicus [2]; [15]): 32.1%
MCV (Rattus norvegicus [2]; [15]): 64.1 fL
Plat (Rattus norvegicus [2]; [15]): 117 x10_4/uL
WBC (Rattus norvegicus [2]; [15]): 127.3 x10_2/uL
BUN (Rattus norvegicus [2]; [16]): 17.7 mg/dL
GLC (Rattus norvegicus [2]; [16]): 177.6 mg/dL
MCHC (Rattus norvegicus [2]; [17]): 33.5%
MCV (Rattus norvegicus [2]; [17]): 63 fL
Plat (Rattus norvegicus [2]; [17]): 107.8 x10_4/uL
WBC (Rattus norvegicus [2]; [17]): 86.6 x10_2/uL
BUN (Rattus norvegicus [2]; [18]): 12.6 mg/dL
GLC (Rattus norvegicus [2]; [18]): 189.2 mg/dL
Hb (Rattus norvegicus [2]; [19]): 12.2 g/dL
MCHC (Rattus norvegicus [2]; [19]): 33.5%
MCV (Rattus norvegicus [2]; [19]): 62.9 fL
WBC (Rattus norvegicus [2]; [19]): 93.2 x10_2/uL
BUN (Rattus norvegicus [2]; [20]): 13 mg/dL
GLC (Rattus norvegicus [2]; [20]): 193 mg/dL
Hb (Rattus norvegicus [2]; [21]): 12.3 g/dL
MCHC (Rattus norvegicus [2]; [21]): 33.5%
MCV (Rattus norvegicus [2]; [21]): 63 fL
Plat (Rattus norvegicus [2]; [21]): 109.8 x10_4/uL
WBC (Rattus norvegicus [2]; [21]): 87.1 x10_2/uL
BUN (Rattus norvegicus [2]; [22]): 11.6 mg/dL
GLC (Rattus norvegicus [2]; [22]): 182.2 mg/dL
Hb (Rattus norvegicus [2]; [23]): 12.9 g/dL
MCV (Rattus norvegicus [2]; [23]): 64.1 fL
Plat (Rattus norvegicus [2]; [23]): 119.7 x10_4/uL
BUN (Rattus norvegicus [2]; [24]): 15.2 mg/dL
GLC (Rattus norvegicus [2]; [24]): 174.6 mg/dL
Hb (Rattus norvegicus [2]; [25]): 12.6 g/dL
MCHC (Rattus norvegicus [2]; [25]): 33.8%
MCV (Rattus norvegicus [2]; [25]): 63 fL
Plat (Rattus norvegicus [2]; [25]): 116 x10_4/uL
WBC (Rattus norvegicus [2]; [25]): 81.9 x10_2/uL
BUN (Rattus norvegicus [2]; [26]): 14.8 mg/dL
GLC (Rattus norvegicus [2]; [26]): 210 mg/dL
Hb (Rattus norvegicus [2]; [27]): 12.5 g/dL
MCHC (Rattus norvegicus [2]; [27]): 33.5%
MCV (Rattus norvegicus [2]; [27]): 63.4 fL
Neu (Rattus norvegicus [2]; [27]): 18.8%
Plat (Rattus norvegicus [2]; [27]): 112.9 x10_4/uL
WBC (Rattus norvegicus [2]; [27]): 94.7 x10_2/uL
BUN (Rattus norvegicus [2]; [28]): 11.4 mg/dL
GLC (Rattus norvegicus [2]; [28]): 189.4 mg/dL
Hb (Rattus norvegicus [2]; [29]): 12.5 g/dL
MCHC (Rattus norvegicus [2]; [29]): 33.4%
MCV (Rattus norvegicus [2]; [29]): 63 fL
Plat (Rattus norvegicus [2]; [29]): 110.9 x10_4/uL
WBC (Rattus norvegicus [2]; [29]): 80.9 x10_2/uL
BUN (Rattus norvegicus [2]; [30]): 10.8 mg/dL
GLC (Rattus norvegicus [2]; [30]): 192.6 mg/dL
Hb (Rattus norvegicus [2]; [31]): 13.2 g/dL
MCHC (Rattus norvegicus [2]; [31]): 32.6%
MCV (Rattus norvegicus [2]; [31]): 64.3 fL
WBC (Rattus norvegicus [2]; [31]): 81.8 x10_2/uL
GLC (Rattus norvegicus [2]; 2000 mg/kg, 24 h, tissue Plasma, dose level High): 182.5 mg/dL
